Laboratory results taken from patent EP4847505A1, “4-METHYLSULFONYL-SUBSTITUTED PIPERIDINE UREA COMPOUNDS” (dated 2026).

The chains behind the UniProt entries cited, without tags or fusion partners.
UniProt Q9BE39, whole entry: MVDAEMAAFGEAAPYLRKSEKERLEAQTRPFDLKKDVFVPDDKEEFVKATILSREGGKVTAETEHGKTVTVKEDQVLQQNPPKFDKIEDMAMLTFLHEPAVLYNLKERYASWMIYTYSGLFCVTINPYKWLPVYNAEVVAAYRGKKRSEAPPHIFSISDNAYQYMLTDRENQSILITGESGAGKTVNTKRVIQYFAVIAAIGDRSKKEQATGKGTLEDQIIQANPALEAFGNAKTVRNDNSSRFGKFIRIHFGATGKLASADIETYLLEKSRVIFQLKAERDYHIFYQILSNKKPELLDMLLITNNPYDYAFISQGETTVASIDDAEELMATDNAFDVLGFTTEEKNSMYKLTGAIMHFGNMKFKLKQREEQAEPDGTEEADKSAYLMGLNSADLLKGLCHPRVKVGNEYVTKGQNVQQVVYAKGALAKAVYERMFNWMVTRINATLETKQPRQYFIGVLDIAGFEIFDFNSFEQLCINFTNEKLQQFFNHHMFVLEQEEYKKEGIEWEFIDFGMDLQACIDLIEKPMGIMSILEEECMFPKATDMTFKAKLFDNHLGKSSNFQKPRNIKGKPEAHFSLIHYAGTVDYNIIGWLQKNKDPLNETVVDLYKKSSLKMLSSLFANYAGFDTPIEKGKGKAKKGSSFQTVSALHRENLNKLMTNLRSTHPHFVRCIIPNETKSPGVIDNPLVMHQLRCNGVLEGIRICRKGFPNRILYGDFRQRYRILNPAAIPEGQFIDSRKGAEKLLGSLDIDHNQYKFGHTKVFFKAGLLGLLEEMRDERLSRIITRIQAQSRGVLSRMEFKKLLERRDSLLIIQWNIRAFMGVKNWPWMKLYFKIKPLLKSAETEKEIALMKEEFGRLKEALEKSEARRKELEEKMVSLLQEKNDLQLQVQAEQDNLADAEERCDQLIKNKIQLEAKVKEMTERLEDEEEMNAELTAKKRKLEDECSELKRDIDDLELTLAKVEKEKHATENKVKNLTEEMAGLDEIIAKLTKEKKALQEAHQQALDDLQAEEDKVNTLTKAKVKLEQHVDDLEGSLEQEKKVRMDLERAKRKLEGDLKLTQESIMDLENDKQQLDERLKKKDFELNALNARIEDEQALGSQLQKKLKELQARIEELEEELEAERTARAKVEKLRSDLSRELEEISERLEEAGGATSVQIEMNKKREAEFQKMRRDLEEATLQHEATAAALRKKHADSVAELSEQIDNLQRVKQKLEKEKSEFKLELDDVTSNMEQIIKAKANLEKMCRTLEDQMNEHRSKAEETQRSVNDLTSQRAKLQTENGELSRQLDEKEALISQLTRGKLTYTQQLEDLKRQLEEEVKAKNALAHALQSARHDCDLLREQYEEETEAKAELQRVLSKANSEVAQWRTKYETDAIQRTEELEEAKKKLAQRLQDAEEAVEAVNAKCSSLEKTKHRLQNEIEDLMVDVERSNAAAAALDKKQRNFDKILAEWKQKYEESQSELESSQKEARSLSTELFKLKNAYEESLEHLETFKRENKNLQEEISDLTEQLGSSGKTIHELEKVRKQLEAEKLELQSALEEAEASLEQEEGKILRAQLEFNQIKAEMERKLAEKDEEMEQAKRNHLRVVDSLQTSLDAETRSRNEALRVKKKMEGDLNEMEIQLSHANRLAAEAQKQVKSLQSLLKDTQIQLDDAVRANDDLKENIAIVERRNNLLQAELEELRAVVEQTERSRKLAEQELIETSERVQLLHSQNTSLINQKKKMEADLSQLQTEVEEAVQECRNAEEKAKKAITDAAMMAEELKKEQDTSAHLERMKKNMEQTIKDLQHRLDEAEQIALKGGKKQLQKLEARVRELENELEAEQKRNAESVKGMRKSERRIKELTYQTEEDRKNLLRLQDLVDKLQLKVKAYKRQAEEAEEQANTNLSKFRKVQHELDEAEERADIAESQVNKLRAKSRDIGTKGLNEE
UniProt Q3SZE5, whole entry partner: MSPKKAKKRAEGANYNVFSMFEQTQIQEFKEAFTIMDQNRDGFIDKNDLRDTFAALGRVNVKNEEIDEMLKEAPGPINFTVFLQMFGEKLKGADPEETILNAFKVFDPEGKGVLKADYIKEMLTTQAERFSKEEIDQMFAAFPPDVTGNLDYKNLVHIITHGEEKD
UniProt P85100, whole entry partner: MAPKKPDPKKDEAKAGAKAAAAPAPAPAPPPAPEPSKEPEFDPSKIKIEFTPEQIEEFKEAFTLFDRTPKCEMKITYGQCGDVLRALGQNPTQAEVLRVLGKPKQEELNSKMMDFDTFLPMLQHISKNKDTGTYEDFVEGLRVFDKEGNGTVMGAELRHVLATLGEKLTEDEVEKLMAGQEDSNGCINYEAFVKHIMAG

Target: bovine cardiac myosin (Bos taurus, UniProt Q9BE39)
Experiment: Myosin activation assay (PK/LDH-coupled ATPase, bovine cardiac myofibrils)
Details: concentration at which the total response is increased by twenty percent

Row | Compound | Myosin Activation (AC20)
1 | CC(C)(C1CCN(C(=O)Nc2cnccn2)CC1)S(=O)(=O)c1cccc(F)c1 | + (+ represents myosin activation value AC20 > 5 µM)
2 | Cn1nc(C(F)(F)F)cc1S(=O)(=O)[C@](C)(F)C1CCN(C(=O)Nc2ccnc(F)c2)CC1 | + (+ represents myosin activation value AC20 > 5 µM)
3 | CC(C)(C1CCN(C(=O)Nc2ccnc(Cl)c2)CC1)S(=O)(=O)c1cccc(F)c1 | ++ (++ represents myosin activation value AC20 from 2 µM - 5 µM)
4 | Cc1ccc(NC(=O)N2CCC(C(C)(F)S(=O)(=O)c3cn(C)nc3C(F)(F)F)CC2)cn1 (stereo not drawn) | + (+ represents myosin activation value AC20 > 5 µM)
5 | CC(C)(C1CCN(C(=O)Nc2ccc(F)nc2)CC1)S(=O)(=O)c1ccc(C#N)cc1 | + (+ represents myosin activation value AC20 > 5 µM)
6 | Cc1ccc(NC(=O)N2CCC(C(C)(F)S(=O)(=O)c3cccc(F)c3)CC2)cn1 (stereo not drawn) | + (+ represents myosin activation value AC20 > 5 µM)
7 | Cc1cc(NC(=O)N2CCC(C(C)(C)S(=O)(=O)c3cn(C)nc3C(F)F)CC2)no1 | + (+ represents myosin activation value AC20 > 5 µM)
8 | Cc1ccc(NC(=O)N2CCC(C(C)(F)S(=O)(=O)c3ccnn3C)CC2)cn1 (stereo not drawn) | ++ (++ represents myosin activation value AC20 from 2 µM - 5 µM)
9 | Cn1nccc1S(=O)(=O)C(C)(F)C1CCN(C(=O)Nc2cnns2)CC1 (stereo not drawn) | +++ (+++ represents myosin activation value AC20 < 2 µM)
10 | Cn1cncc1S(=O)(=O)C(C)(C)C1CCN(C(=O)Nc2ccnnc2)CC1 | + (+ represents myosin activation value AC20 > 5 µM)
11 | CCn1nccc1S(=O)(=O)C(C)(C)C1CCN(C(=O)Nc2cnns2)CC1 | ++ (++ represents myosin activation value AC20 from 2 µM - 5 µM)
12 | C[C@H](O)c1cc(NC(=O)N2CCC(C(F)(F)S(=O)(=O)c3cn(C)nc3C(F)F)CC2)ccn1 | + (+ represents myosin activation value AC20 > 5 µM)
13 | Cn1nc(C(F)(F)F)cc1S(=O)(=O)C(C)(C)C1CCN(C(=O)Nc2ccnnc2)CC1 | +++ (+++ represents myosin activation value AC20 < 2 µM)
14 | O=C(Nc1ccnnc1)N1CCC(C(F)(F)S(=O)(=O)c2ccc(-n3cncn3)cc2)CC1 | ++ (++ represents myosin activation value AC20 from 2 µM - 5 µM)
15 | Cn1nccc1-c1ccc(S(=O)(=O)C(F)(F)C2CCN(C(=O)Nc3ccnnc3)CC2)cc1 | + (+ represents myosin activation value AC20 > 5 µM)
16 | CC(C1CCN(C(=O)Nc2ccncc2)CC1)S(=O)(=O)c1cccc(F)c1 (stereo not drawn) | ++ (++ represents myosin activation value AC20 from 2 µM - 5 µM)
17 | Cc1cc(NC(=O)N2CCC([C@](C)(F)S(=O)(=O)c3cc(C(F)(F)F)nn3C)CC2)ccn1 | +++ (+++ represents myosin activation value AC20 < 2 µM)
18 | CCn1nccc1S(=O)(=O)C(F)(F)C1CCN(C(=O)Nc2ccnnc2)CC1 | + (+ represents myosin activation value AC20 > 5 µM)
19 | Cn1cc(S(=O)(=O)[C@@](C)(F)C2CCN(C(=O)Nc3cc[nH]n3)CC2)c(C(F)F)n1 | ++ (++ represents myosin activation value AC20 from 2 µM - 5 µM)
20 | Cn1cc(S(=O)(=O)C(C)(F)C2CCN(C(=O)Nc3ccnc(F)c3)CC2)c(C(F)(F)F)n1 (stereo not drawn) | ++ (++ represents myosin activation value AC20 from 2 µM - 5 µM)
21 | C[C@](F)(C1CCN(C(=O)Nc2ccnnc2)CC1)S(=O)(=O)c1cccc(F)c1 | +++ (+++ represents myosin activation value AC20 < 2 µM)

Row | Compound | Myosin Activation (AC20)
22 | COc1cccc(S(=O)(=O)C(F)(F)C2CCN(C(=O)Nc3ccnnc3)CC2)c1Cl | ++ (++ represents myosin activation value AC20 from 2 µM - 5 µM)
23 | Cn1cc(S(=O)(=O)[C@@](C)(F)C2CCN(C(=O)Nc3cocn3)CC2)c(C(F)F)n1 | + (+ represents myosin activation value AC20 > 5 µM)
24 | Cc1ccc(NC(=O)N2CCC(C(C)(C)S(=O)(=O)c3ccnn3C)CC2)cn1 | + (+ represents myosin activation value AC20 > 5 µM)
25 | Cn1cc(S(=O)(=O)C(C)(C)C2CCN(C(=O)Nc3cnoc3)CC2)c(C(F)F)n1 | +++ (+++ represents myosin activation value AC20 < 2 µM)
26 | Cn1nc(C(F)(F)F)cc1S(=O)(=O)C(C)(F)C1CCN(C(=O)Nc2ccnnc2)CC1 (stereo not drawn) | +++ (+++ represents myosin activation value AC20 < 2 µM)
27 | Cn1nccc1S(=O)(=O)C(C)(C)C1CCN(C(=O)Nc2ccc(F)nc2)CC1 | + (+ represents myosin activation value AC20 > 5 µM)
28 | C[C@@](F)(C1CCN(C(=O)Nc2ccc(C#N)nc2)CC1)S(=O)(=O)c1cccc(F)c1 | + (+ represents myosin activation value AC20 > 5 µM)
29 | Cn1cc(S(=O)(=O)C(C)(C)C2CCN(C(=O)Nc3ccnnc3)CC2)cn1 | + (+ represents myosin activation value AC20 > 5 µM)
30 | Cn1nc(C2CC2)cc1S(=O)(=O)C(F)(F)C1CCN(C(=O)Nc2ccnnc2)CC1 | ++ (++ represents myosin activation value AC20 from 2 µM - 5 µM)
31 | CC(C)(C1CCN(C(=O)Nc2ccnc(F)c2)CC1)S(=O)(=O)c1cccc(F)c1 | ++ (++ represents myosin activation value AC20 from 2 µM - 5 µM)
32 | Cn1cc(S(=O)(=O)[C@](C)(F)C2CCN(C(=O)Nc3ccc(F)nc3)CC2)c(C(F)F)n1 | + (+ represents myosin activation value AC20 > 5 µM)
33 | CC(C)(C1CCN(C(=O)Nc2nnco2)CC1)S(=O)(=O)c1cccc(F)c1 | + (+ represents myosin activation value AC20 > 5 µM)
34 | Cc1cc(S(=O)(=O)C(C)(C)C2CCN(C(=O)Nc3ccnnc3)CC2)n(C)n1 | +++ (+++ represents myosin activation value AC20 < 2 µM)
35 | Cn1nccc1S(=O)(=O)C(C)(F)C1CCN(C(=O)Nc2ccnnc2)CC1 (stereo not drawn) | ++ (++ represents myosin activation value AC20 from 2 µM - 5 µM)
36 | Cn1nc(C(F)F)cc1S(=O)(=O)C(C)(F)C1CCN(C(=O)Nc2ccnc(F)c2)CC1 (stereo not drawn) | ++ (++ represents myosin activation value AC20 from 2 µM - 5 µM)
37 | Cn1cc(S(=O)(=O)[C@@](C)(F)C2CCN(C(=O)Nc3ccc(F)nc3)CC2)c(C(F)F)n1 | +++ (+++ represents myosin activation value AC20 < 2 µM)
38 | CC(C)(C1CCN(C(=O)Nc2ccnnc2)CC1)S(=O)(=O)c1cccc(F)c1 | +++ (+++ represents myosin activation value AC20 < 2 µM)
39 | COc1ccccc1S(=O)(=O)C(F)(F)C1CCN(C(=O)Nc2ccnnc2)CC1 | + (+ represents myosin activation value AC20 > 5 µM)
40 | Cn1nc(C(F)F)cc1S(=O)(=O)C(C)(C)C1CCN(C(=O)Nc2ccon2)CC1 | ++ (++ represents myosin activation value AC20 from 2 µM - 5 µM)
41 | Cn1nc(C(F)F)cc1S(=O)(=O)C(C)(C)C1CCN(C(=O)Nc2ccnnc2)CC1 | +++ (+++ represents myosin activation value AC20 < 2 µM)
42 | CC(F)(C1CCN(C(=O)Nc2ccc(F)nc2)CC1)S(=O)(=O)c1cccc(F)c1 (stereo not drawn) | ++ (++ represents myosin activation value AC20 from 2 µM - 5 µM)
